## Cyclic peptide permeability, from CycPeptMPDB

Collected by the curators of CycPeptMPDB (Li et al. 2023) from Furukawa et al. 2016, doi:10.1021/acs.jmedchem.6b01246.

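The data file gives no further conditions (lipid, pH, time, direction or concentration), and values from different papers need not be comparable. Other peptides of the study may be missing here. Entries at the database's floor value (log10 P of -10) are not listed.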

PAMPA measures passive passage through an artificial lipid membrane.
P is given in units of 10^-6 cm/s (from log10 values with two decimals); larger means faster passage.

For CCCCCN1CC(=O)N[C@@H](CC(C)C)C(=O)N[C@@H](CCCC)C(=O)N2CCC[C@H]2C(=O)N(CCCOC(C)C)CC(=O)N[C@H](C)C1=O the data give PAMPA 0.35 × 10^-6 cm/s. Listed for CCCCCN1CC(=O)N[C@H](CC(C)C)C(=O)N[C@@H](CCCC)C(=O)N2CCC[C@H]2C(=O)N(CCCOC(C)C)CC(=O)N[C@H](Cc2ccccc2)C1=O: PAMPA 12 × 10^-6 cm/s. The entry for CCCC[C@@H]1NC(=O)[C@H](CC(C)C)NC(=O)CN(CC2CCOCC2)C(=O)[C@H](Cc2ccccc2)NC(=O)CN(Cc2ccc3c(c2)OCO3)C(=O)[C@H]2CCCN2C1=O lists PAMPA 7.9 × 10^-6 cm/s. CCCC[C@@H]1NC(=O)[C@@H](CC(C)C)NC(=O)CN(CC2CCCCC2)C(=O)[C@@H](Cc2ccccc2)NC(=O)CN(CC)C(=O)[C@H]2CCCN2C1=O has PAMPA 9.3 × 10^-6 cm/s. For CCCC[C@@H]1NC(=O)[C@H](CC(C)C)N(C)C(=O)CN(CC2CCCCC2)C(=O)[C@H](C)NC(=O)CN(CCCOC(C)C)C(=O)[C@H]2CCCN2C1=O the data give PAMPA 13 × 10^-6 cm/s. The entry for CCCC[C@@H]1NC(=O)[C@@H](CC(C)C)NC(=O)CN(CC2CCCCC2)C(=O)[C@@H](C)NC(=O)CN(CC)C(=O)[C@H]2CCCN2C1=O lists PAMPA 1 × 10^-6 cm/s. CCCCCN1CC(=O)N(C)[C@@H](CC(C)C)C(=O)N[C@@H](CCCC)C(=O)N2CCC[C@@H]2C(=O)N(CCCOC(C)C)CC(=O)N[C@@H](Cc2ccccc2)C1=O has PAMPA 3.4 × 10^-6 cm/s.

For CCCCCN1CC(=O)N(C)[C@@H](CC(C)C)C(=O)N[C@@H](CCCC)C(=O)N2CCC[C@@H]2C(=O)N(Cc2ccc3c(c2)OCO3)CC(=O)N[C@@H](Cc2ccccc2)C1=O the data give PAMPA 0.039 × 10^-6 cm/s. CCCCCN1CC(=O)N[C@@H](CC(C)C)C(=O)N[C@@H](CCCC)C(=O)N2CCC[C@@H]2C(=O)N(CC)CC(=O)N[C@@H](Cc2ccccc2)C1=O has PAMPA 7.4 × 10^-6 cm/s. The entry for CCCC[C@@H]1NC(=O)[C@@H](CC(C)C)NC(=O)CN(CC2CCCCC2)C(=O)[C@@H](Cc2ccccc2)NC(=O)CN(Cc2ccc3c(c2)OCO3)C(=O)[C@@H]2CCCN2C1=O lists PAMPA 4.7 × 10^-6 cm/s. CCCCCN1CC(=O)N(C)[C@@H](CC(C)C)C(=O)N[C@@H](CCCC)C(=O)N2CCC[C@H]2C(=O)N(CCCOC(C)C)CC(=O)N[C@@H](Cc2ccccc2)C1=O has PAMPA 8.3 × 10^-6 cm/s. Listed for CCCCCN1CC(=O)N(C)[C@H](CC(C)C)C(=O)N[C@@H](CCCC)C(=O)N2CCC[C@H]2C(=O)N(Cc2ccc3c(c2)OCO3)CC(=O)N[C@H](C)C1=O: PAMPA 4.7 × 10^-6 cm/s. The entry for CCCC[C@@H]1NC(=O)[C@H](CC(C)C)N(C)C(=O)CN(CC2CCOCC2)C(=O)[C@H](Cc2ccccc2)NC(=O)CN(Cc2ccc3c(c2)OCO3)C(=O)[C@H]2CCCN2C1=O lists PAMPA 6.5 × 10^-6 cm/s. CCCCCN1CC(=O)N[C@H](CC(C)C)C(=O)N[C@@H](CCCC)C(=O)N2CCC[C@@H]2C(=O)N(Cc2ccc3c(c2)OCO3)CC(=O)N[C@H](Cc2ccccc2)C1=O is reported with PAMPA 3.6 × 10^-6 cm/s.

For CCCC[C@@H]1NC(=O)[C@H](CC(C)C)N(C)C(=O)CN(CC2CCCCC2)C(=O)[C@H](C)NC(=O)CN(CC)C(=O)[C@H]2CCCN2C1=O the data give PAMPA 9.1 × 10^-6 cm/s. The entry for CCCCCN1CC(=O)N[C@@H](CC(C)C)C(=O)N[C@@H](CCCC)C(=O)N2CCC[C@H]2C(=O)N(Cc2ccc3c(c2)OCO3)CC(=O)N[C@@H](C)C1=O lists PAMPA 3.2 × 10^-6 cm/s. CCCC[C@@H]1NC(=O)[C@@H](CC(C)C)N(C)C(=O)CN(CC2CCCCC2)C(=O)[C@H](Cc2ccccc2)NC(=O)CN(Cc2ccc3c(c2)OCO3)C(=O)[C@H]2CCCN2C1=O has PAMPA 0.068 × 10^-6 cm/s. The entry for CCCCCN1CC(=O)N(C)[C@H](CC(C)C)C(=O)N[C@@H](CCCC)C(=O)N2CCC[C@@H]2C(=O)N(CCCOC(C)C)CC(=O)N[C@H](Cc2ccccc2)C1=O lists PAMPA 6.2 × 10^-6 cm/s. The entry for CCCCCN1CC(=O)N[C@@H](CC(C)C)C(=O)N[C@@H](CCCC)C(=O)N2CCC[C@@H]2C(=O)N(Cc2ccc3c(c2)OCO3)CC(=O)N[C@H](Cc2ccccc2)C1=O lists PAMPA 3.7 × 10^-6 cm/s.

The first 2 entries again:

SMILES	PAMPA (10^-6 cm/s)
CCCCCN1CC(=O)N[C@@H](CC(C)C)C(=O)N[C@@H](CCCC)C(=O)N2CCC[C@H]2C(=O)N(CCCOC(C)C)CC(=O)N[C@H](C)C1=O	0.35
CCCCCN1CC(=O)N[C@H](CC(C)C)C(=O)N[C@@H](CCCC)C(=O)N2CCC[C@H]2C(=O)N(CCCOC(C)C)CC(=O)N[C@H](Cc2ccccc2)C1=O	12